US20250154109A1, “SODIUM CHANNEL BLOCKING COMPOUNDS, DERIVATIVES THEREOF, AND METHODS OF THEIR USE” (LATIGO BIOTHERAPEUTICS, INC, priority 2022, published 2025)
Read-outs that look alike come from different tables or passages of the source.

Sequences of proteins named here, by UniProt entry; tags and fusion partners are left off.
UniProt Q9Y5Y9, whole entry: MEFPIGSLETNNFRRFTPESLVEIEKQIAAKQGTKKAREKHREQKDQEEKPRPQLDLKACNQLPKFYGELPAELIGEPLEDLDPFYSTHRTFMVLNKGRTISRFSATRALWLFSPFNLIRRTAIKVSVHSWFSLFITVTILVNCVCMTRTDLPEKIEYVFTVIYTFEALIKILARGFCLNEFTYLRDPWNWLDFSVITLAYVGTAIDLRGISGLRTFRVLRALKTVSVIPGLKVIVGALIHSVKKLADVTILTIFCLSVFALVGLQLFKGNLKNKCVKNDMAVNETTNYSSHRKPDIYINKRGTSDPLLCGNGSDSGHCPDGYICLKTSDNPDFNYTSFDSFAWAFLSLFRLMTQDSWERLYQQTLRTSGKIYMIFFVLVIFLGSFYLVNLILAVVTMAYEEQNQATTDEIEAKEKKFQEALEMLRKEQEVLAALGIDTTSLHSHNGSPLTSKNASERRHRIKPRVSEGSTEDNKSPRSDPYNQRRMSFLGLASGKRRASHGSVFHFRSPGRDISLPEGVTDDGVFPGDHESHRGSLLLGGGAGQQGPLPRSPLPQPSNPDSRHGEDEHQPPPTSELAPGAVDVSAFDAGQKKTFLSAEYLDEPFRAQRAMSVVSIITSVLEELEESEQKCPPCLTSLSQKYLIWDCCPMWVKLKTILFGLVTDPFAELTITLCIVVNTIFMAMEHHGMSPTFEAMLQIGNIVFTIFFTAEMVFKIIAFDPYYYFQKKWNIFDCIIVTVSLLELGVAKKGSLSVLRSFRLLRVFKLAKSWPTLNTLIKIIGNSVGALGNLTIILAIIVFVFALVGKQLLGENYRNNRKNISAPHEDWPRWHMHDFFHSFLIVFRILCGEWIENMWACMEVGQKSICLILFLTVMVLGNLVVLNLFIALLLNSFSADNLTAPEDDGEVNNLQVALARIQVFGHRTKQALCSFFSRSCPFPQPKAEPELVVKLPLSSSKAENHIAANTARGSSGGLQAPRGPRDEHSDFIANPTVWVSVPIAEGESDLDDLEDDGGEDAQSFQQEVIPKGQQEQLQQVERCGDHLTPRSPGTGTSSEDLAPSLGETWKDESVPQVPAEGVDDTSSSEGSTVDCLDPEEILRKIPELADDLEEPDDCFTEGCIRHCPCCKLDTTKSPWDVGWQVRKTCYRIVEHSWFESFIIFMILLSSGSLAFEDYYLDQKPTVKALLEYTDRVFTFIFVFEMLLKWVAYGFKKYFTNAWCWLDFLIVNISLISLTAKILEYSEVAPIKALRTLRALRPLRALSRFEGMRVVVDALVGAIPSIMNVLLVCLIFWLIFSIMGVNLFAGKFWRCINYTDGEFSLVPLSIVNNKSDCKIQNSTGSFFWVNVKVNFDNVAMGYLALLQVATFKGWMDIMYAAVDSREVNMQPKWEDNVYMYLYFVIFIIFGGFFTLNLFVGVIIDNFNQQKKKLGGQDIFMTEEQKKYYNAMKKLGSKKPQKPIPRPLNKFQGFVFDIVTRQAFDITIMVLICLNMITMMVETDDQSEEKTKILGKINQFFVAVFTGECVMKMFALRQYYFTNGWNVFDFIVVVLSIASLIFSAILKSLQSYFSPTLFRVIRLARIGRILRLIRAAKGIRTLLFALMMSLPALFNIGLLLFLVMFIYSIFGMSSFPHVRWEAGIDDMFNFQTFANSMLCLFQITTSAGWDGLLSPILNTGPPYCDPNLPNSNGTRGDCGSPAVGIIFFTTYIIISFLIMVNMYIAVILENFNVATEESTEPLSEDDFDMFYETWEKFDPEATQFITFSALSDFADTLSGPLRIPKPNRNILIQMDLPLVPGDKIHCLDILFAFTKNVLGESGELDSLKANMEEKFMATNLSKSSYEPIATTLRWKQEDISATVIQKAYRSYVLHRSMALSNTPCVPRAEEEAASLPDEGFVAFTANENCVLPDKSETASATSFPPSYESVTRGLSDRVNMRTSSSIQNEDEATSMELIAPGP

Molecular target: human Nav1.8 (Homo sapiens, UniProt Q9Y5Y9)
Experiment: SyncroPatch384PE assay (automated patch clamp)
Type: cell-based
Procedure: Compounds were tested on recombinant human Nav1.8/b3 stably transfected CHO cells using the SyncroPatch384PE system (Nanion Technologies), an automated patch clamp device. Cells were cultured at 37° C./5% CO2 in Ham's F-12 supplemented with 10% fetal bovine serum, 100 U/mL penicillin G sodium, […] streptomycin sulfate and selection antibiotics (0.01 mg/mL Blasticidin, 0.4 mg/mL Zeocin and 0.25 mg/mL Hygromycin). On the day of the recordings, cells in culture dishes were washed twice with Hank's Balanced Salt Solution (HBSS) and treated with Accutase for approximately 20 minutes. Immediately before use in the SynchroPatch384PE using an 8-hole NPC-384 chip, the cells were washed in HBSS to remove the Accutase and re-suspended in extracellular solution. All experiments were performed at ambient temperature. […]
Whole cell patch clamp recordings were conducted according to Nanion's standard procedure for SyncroPatch384PE®. […] Compounds were then applied by the SynchroPatch384 PE system into each well and the current was recorded for five minutes in extracellular solution, followed by application of tetracaine to achieve full block at the end of experiment. The potency of the compounds was assessed on two read-outs, resting state block (P1 measurement) or inactivated state block (P2 measurement) to obtain IC50 values. […]

Compound `Cc1c(C(F)(F)F)cnc(N2CCCC(F)(F)CC2)c1C(=O)Nc1cccc([S@@](C)(=O)=NC(=O)[C@@H](C)N)c1` has an IC50 (read-out: P1 IC50, resting state block (P1 measurement), human Nav1.8/b3 CHO cells) of less than 5 nM and an IC50 (read-out: P2 IC50, inactivated state block (P2 measurement), human Nav1.8/b3 CHO cells) of less than 5 nM.
